The list shows a part of the results, in another mix than the full data. The source made the active and inactive calls.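 The calls were made as follows: active = inhibition above the mean inhibition of all tested compounds plus 3 SD (cut at about 28% in these data); inactive = the rest.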

A short description of this experiment: cytotoxicity toward Jurkat T cells, primary screen, cytotoxicity control, cell-based, Jurkat E6.1, 60K MLSMR library (AID 463). As to conditions: Jurkat E6.1 viability, ATP luminescence, 48 h; at 4 µM; hits give high values.
Take `Cc1ccc(C)c(NP(C)(=O)Oc2ccccc2)c1` (stereo not given): the inhibition is inactive: -4.6%.
Under `Cc1nc2ccc3ccccc3c2s1.O=[N+]([O-])c1cc([N+](=O)[O-])c(O)c([N+](=O)[O-])c1` stands inactive: -5.1%; under `CCOP(C)(=S)SCC(=O)NC(C)C(=O)O` (stereo not given), inactive: 0.6%.
In the case of `CP(=S)(Nn1cnnc1)Oc1ccccc1` (stereo not given), the inhibition was inactive: 2.2%.
Under `Cc1ccc(NP(C)(=O)Oc2ccccc2)c(C)c1` (stereo not given) stands inactive: -5.5%.
Under `COc1ccccc1OP(C)(=O)Nc1ccc(C)cc1` (stereo not given) stands inactive: 5.5%; under `CP(=O)(Nc1ccccn1)Oc1ccccc1` (stereo not given), inactive: -0.4%.
For the compound `COc1ccccc1OP(C)(=O)Nc1ccc(C)c(C)c1` (stereo not given), the inhibition was inactive: -5.1%.
Consider `Cc1nc2ccc3ccccc3c2o1.O=[N+]([O-])c1cc([N+](=O)[O-])c(O)c([N+](=O)[O-])c1`, for which the inhibition was inactive: 1.9%.
As to `COc1ccccc1OP(C)(=O)Nc1c(C)n(C)n(-c2ccccc2)c1=O` (stereo not given), the inhibition is inactive: -1.1%.
Turning to `CP(=O)(Oc1ccccc1)N1CCOC1=O` (stereo not given), the inhibition is inactive: -1.9%.
Next, `CCOP(C)(=S)SCC(=O)NC(C)(CC)C(=O)O` (stereo not given): inactive: 5.3%; `Cc1ccccc1NP(C)(=O)Nc1ccccc1C`: inactive: 1%.
In the case of `CN(C)CCOC(=O)C(O)(c1ccccc1)C1CCCCC1` (stereo not given), the inhibition is inactive: -2.6%.
Under `CP(=O)(Nc1ccccc1F)Oc1ccccc1` (stereo not given) stands inactive: 0.3%.

What is called inhibition is the change of the read-out against control, counted positive when it falls.

Values taken from PubChem BioAssay AID463 (The Scripps Research Institute Molecular Screening Center, 2006).
